Data on two substances can be found in patent US7348140B1, “Clinical indications for genotyping polymorphic variants of G-protein coupled receptors” (Acadia Pharmaceuticals, Inc., priority 2001, dated 2008).

The chains behind the UniProt entries cited, without tags or fusion partners.
UniProt P30556, whole entry C289W, looked up: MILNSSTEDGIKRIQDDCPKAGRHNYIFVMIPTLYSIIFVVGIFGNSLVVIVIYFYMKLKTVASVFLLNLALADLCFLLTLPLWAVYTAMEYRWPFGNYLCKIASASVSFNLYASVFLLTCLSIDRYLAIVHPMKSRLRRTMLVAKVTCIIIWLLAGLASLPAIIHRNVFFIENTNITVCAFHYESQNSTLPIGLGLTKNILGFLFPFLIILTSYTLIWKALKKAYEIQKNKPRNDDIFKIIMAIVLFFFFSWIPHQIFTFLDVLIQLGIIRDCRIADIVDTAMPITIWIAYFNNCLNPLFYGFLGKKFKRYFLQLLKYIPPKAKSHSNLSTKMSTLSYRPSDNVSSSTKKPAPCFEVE
UniProt P30556, whole entry F204S, looked up: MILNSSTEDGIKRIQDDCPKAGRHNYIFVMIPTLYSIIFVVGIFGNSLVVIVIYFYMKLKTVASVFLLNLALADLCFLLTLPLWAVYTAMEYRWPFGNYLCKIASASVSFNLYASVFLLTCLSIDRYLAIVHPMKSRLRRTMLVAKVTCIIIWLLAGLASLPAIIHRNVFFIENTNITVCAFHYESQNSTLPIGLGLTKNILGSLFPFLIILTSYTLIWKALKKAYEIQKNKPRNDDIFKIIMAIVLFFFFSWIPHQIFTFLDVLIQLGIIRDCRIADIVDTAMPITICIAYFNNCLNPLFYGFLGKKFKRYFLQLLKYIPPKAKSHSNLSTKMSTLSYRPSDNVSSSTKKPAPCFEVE

Experiment [1] deals with angiotensin II Type 1 receptor C289W (Tryptophan 289) (Homo sapiens, UniProt P30556, C289W).
Experiment [2] addresses angiotensin II Type 1 receptor F204S (Serine 204) (Homo sapiens, UniProt P30556, F204S).
The target in experiment [3] is cholecystokinin B receptor (Leucine 224) (Homo sapiens, UniProt P32239, E288K). Type of experiment: cell-based.
Experiment [4] deals with T1, cholecystokinin B receptor L224Q (Glutamine 224) (Homo sapiens, UniProt P32239, E288K/L224Q).
T1 construct: expressed in transfected cells; host or cells: NIH-3T3
T1 sequence (P32239 1-447 L224Q/E288K): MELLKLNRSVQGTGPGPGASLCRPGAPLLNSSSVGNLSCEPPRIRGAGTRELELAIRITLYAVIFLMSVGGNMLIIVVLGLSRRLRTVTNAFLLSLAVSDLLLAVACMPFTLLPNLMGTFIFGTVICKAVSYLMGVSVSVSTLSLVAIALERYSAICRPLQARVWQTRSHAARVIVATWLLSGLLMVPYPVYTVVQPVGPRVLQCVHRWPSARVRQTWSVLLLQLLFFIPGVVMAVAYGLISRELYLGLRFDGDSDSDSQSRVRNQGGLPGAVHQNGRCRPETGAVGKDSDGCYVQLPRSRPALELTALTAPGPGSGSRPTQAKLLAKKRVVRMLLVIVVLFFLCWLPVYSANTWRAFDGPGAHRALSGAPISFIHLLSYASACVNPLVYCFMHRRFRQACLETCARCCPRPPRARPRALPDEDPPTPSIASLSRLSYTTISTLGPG
In words: R-SAT functional assay, cholecystokinin B receptor L224Q. Type of experiment: cell-based.

As for Angiotensin 2, the figures for the FOLD in experiment [1] and in experiment [2] were 13 fold and 63 fold, respectively.
As for CCK-4, the “Ave −Log EC50” value is reported as 7.10 in experiment [3] and 8.18 in experiment [4].
